Test system: human EGFR^T790M-mutant NCI-H1975 lung cancer xenograft tumor model
Assay: Example 5: Compound 5 with AZD9291 in xenograft tumor model

In the case of C=CC(=O)Nc1cc(Nc2nccc(-c3cn(C)c4ccccc34)n2)c(OC)cc1N(C)CCN(C)C [AZD9291, osimertinib], the “Tumor status on Day 15 after administration: CR, mice/group” value is reported as 0/6 and the “Tumor status on Day 15 after administration: PR, mice/group” value is reported as 1/6.

Reference: US11478477B2, “Method for treating cancer by combination of FAK/ALK/ROS1 inhibitor and EGFR inhibitor” (ASCENTAGE PHARMA (SUZHOU) CO., LTD., priority 2018, dated 2022)
